Measured values taken from paper PMC9459812, “Evaluation of Activity of Sesquiterpene Lactones and Chicory Extracts as Acetylcholinesterase Inhibitors Assayed in Calorimetric and Docking Simulation Studies” (Nutrients, 2022).

Sequences of proteins named here, by UniProt entry; tags and fusion partners are left off. Residues count along the entry.
UniProt O42275, 24-633 limits assumed: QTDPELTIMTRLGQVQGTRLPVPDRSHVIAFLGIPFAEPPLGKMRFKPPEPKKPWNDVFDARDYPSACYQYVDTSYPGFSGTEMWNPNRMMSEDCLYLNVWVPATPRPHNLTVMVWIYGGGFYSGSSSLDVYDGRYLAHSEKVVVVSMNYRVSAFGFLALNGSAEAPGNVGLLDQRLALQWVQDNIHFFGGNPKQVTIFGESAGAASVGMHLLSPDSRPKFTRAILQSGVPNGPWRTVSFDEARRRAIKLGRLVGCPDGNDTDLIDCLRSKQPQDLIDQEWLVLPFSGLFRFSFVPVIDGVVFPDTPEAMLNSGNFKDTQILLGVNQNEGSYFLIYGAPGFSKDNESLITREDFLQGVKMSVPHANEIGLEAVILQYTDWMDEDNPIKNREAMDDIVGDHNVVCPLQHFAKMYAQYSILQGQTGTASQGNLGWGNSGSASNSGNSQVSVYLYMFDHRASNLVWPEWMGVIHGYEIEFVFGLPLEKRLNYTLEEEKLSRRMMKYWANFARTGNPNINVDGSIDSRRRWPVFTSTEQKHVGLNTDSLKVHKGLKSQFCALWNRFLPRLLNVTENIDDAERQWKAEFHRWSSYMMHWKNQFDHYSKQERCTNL

Key:
[1] = target: T1, acetylcholinesterase (AChE) (Electrophorus electricus, UniProt O42275); settings: ITC, 36.6 °C; for ∆H (enthalpy change of interaction with AChE): AChE 1 μmol/L, ligand 1 mmol/L (extracts converted to lactucin content); for ∆G (affinity of the inhibitor): calculated from the Gibbs equation; for KA × 10^3 (binding constant): values × 10^3, n = 9, ± SD
[2] = read-out: Cmax (serum concentration), free SLs, after consumption of a serving of chicory juice containing 49 μmol of total SLs, ref Weng et al. [37]; cited from earlier work
[3] = target: T1, acetylcholinesterase (AChE); assay: ITC test of inhibition of acetylcholine hydrolysis by AChE; type: biochemical

Row | Compound | ∆H (enthalpy change of interaction with AChE) ([1]; n = 9, ± SD) | ∆G (affinity of the inhibitor) ([1]; n = 9, ± SD) | ∆S (entropy change) ([1]; n = 9, ± SD) | KA × 10^3 (binding constant) [1] | KA × 10^3 (binding constant) ([1]; listed as lactucopicrin) [L/mol] | Cmax [2] [nM] | IC50 ([3]; inhibitor concentration causing 50% decrease in enzyme activity (converted to lactucine for extracts), n = 9, ± SD) [µM] | Ki ([3]; read-out: KI (inhibition constant), dissociation constant of the enzyme–inhibitor complex, n = 9, ± SD) [µM] | KA × 10^3 (binding constant) ([1]; listed as lactucin) [L/mol] | Kd ([1]; read-out: KD (dissociation constant), single binding site mode, n = 9, ± SD) [µM]
1 | C=C1C(=O)OC2C3C(CO)=CC(=O)C3=C(C)CC(OC(=O)Cc3ccc(O)cc3)C12 (stereo not drawn) | −74.45 ± 0.88 ^d kJ/mol | −22.41 ± 1.59 ^a kJ/mol | −262.27 ± 2.21 ^b J/mol × K | 5.92 ± 0.11 ^d L/mol | 5.92 |  |  |  |  | 
2 | 11(S),13-dihydrolactucin |  |  |  |  |  | 116 |  |  |  | 
3 | C=C1C(=O)OC2C3C(CO)=CC(=O)C3=C(C)CC(O)C12 (stereo not drawn) | −166.93 ± 0.22 ^e kJ/mol | −23.41 ± 1.82 ^a kJ/mol | −262.62 ± 6.21 ^b J/mol × K | 33.44 ± 0.21 ^a L/mol |  | 143 | 3.11 | 1.12 | 33.44 | 29.9

Like-named read-outs stand apart in the source and are kept apart here. Marks after values point to notes of the source that are not given here.
